Assay results as given in ChEMBL document CHEMBL4732251, “Synthesis and evaluation of the epithelial-to- mesenchymal inhibitory activity of indazole-derived imidazoles as dual ALK5/p38α MAP inhibitors” (Eur J Med Chem, 2021).

By UniProt entry, the sequences of proteins in these tests, tags left out.
UniProt Q16539, whole entry: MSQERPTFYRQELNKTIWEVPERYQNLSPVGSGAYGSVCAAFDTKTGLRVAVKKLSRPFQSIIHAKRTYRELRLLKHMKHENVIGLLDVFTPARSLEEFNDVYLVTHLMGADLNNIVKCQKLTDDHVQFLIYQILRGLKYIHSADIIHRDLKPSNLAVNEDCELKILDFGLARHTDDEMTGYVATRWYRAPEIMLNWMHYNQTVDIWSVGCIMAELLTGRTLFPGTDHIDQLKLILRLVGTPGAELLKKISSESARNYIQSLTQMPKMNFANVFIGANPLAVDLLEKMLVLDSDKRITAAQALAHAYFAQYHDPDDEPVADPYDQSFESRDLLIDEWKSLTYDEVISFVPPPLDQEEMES

Tests used:
[1] = target: T1, Mitogen-activated protein kinase 14 (Homo sapiens, UniProt Q16539); experiment: Potency index, ratio of LY-2157299 IC50 to test compound IC50 for recombinant human p38alpha expressed in Escherichia coli assessed as incoporation of [33]Pi after 60 mins in presence of [gamma-33P]-ATP by microplate scintillation counter method
[2] = target: T1, Mitogen-activated protein kinase 14; experiment: Potency index, ratio of EW-7197 IC50 to test compound IC50 for recombinant human p38alpha expressed in Escherichia coli assessed as incoporation of [33]Pi after 60 mins in presence of [gamma-33P]-ATP by microplate scintillation counter method

In the case of `Cc1cccc(-c2[nH]c(CNc3cccc(F)c3)nc2-c2ccc3[nH]ncc3c2)n1`, the Ratio IC50 [1] is reported as 123 and the Ratio IC50 [2] is reported as 738.
